System: bacterial cells (salmonella typhimurium TM677)
Conditions: salmonella typhimurium tm677, 0 h, 200 µM

For “dichlorobis (ethylenediamine) rhodium (III) [Compound 3]”, the “N/No (toxicity)” value was 1.

From patent publication US4681091A, “Combination modality cancer therapy” (priority 1985, dated 1987)
